Measurements: article PMC8914530 (Data in Brief, 2022)

By UniProt entry, the sequences of proteins in these tests, tags left out. Where a name states a change or a piece, a line headed by the entry shows the natural chain unless it says otherwise.
UniProt P20813: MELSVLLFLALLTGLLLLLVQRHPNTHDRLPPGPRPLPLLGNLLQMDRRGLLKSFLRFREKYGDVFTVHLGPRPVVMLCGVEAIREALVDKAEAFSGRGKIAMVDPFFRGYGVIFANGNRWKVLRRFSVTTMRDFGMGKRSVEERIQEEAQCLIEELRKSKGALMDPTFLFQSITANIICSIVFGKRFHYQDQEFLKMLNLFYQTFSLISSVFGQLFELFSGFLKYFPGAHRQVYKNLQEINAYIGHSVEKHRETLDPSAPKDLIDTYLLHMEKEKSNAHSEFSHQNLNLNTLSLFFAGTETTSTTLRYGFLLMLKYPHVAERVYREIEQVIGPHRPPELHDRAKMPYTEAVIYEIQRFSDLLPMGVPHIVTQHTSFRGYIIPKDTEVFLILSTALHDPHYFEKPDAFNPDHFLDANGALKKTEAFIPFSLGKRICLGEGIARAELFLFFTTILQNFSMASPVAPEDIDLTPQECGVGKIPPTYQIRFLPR

Biological target: CYP2B6 (Homo sapiens, UniProt P20813)
Assay: CYP2B6 Vivid CYP450 Blue fluorescent inhibition assay
Type: biochemical
Conditions: variable slope sigmoidal fit, GraphPad Prism 7.0

(+)-α-Pinene
CYP2B6 Hillslope: −1.74
